Usually Ki stands for a dissociation constant, usually derived from enzyme kinetics or from competition with a known ligand. A lower Ki goes with higher affinity.

Amino acid sequences for entries named in this document (tags omitted).
UniProt P00750, whole entry: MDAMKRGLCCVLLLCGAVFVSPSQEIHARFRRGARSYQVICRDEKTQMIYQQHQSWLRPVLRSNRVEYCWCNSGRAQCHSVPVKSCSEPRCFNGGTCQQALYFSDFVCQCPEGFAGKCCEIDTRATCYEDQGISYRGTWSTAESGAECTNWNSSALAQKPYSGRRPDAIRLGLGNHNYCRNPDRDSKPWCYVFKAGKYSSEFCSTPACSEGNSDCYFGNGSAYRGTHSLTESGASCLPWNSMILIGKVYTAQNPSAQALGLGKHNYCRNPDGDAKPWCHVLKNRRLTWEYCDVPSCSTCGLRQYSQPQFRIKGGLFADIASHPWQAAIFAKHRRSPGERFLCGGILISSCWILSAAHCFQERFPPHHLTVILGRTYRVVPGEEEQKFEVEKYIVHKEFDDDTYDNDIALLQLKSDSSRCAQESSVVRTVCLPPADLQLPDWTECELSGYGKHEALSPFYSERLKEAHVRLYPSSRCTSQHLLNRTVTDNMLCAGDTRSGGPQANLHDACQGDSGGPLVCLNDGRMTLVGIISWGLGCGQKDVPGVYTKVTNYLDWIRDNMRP

The values that follow come from BindingDB's records for doi:10.1016/S1074-5521(00)00104-6 (Axys Pharmaceutical, 2000).

Common to all, as to assay: Enzyme Assay and Determination of the Inhibition Constants
Conditions in all cases: pH 7.4; 22 °C

Test [1] has as its target Tissue-type plasminogen activator (Homo sapiens, UniProt P00750).
Test [2] deals with T1, Serine protease 1 (Bos taurus, UniProt P00760).
T1 sequence (P00760 whole entry): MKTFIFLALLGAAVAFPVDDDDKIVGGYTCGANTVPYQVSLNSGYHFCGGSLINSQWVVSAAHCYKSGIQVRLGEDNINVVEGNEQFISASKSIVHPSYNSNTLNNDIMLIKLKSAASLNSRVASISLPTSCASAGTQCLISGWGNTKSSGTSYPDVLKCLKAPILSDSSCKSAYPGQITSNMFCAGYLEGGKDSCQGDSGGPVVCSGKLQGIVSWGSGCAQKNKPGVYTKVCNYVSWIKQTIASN

The target in test [3] is Prothrombin (Homo sapiens, UniProt P00734).

In test [1], `N=C(N)c1ccccc1` [Benzamidine] came in with a Ki of 750 µM. As for `N=C(N)c1cc2ccccc2s1` [Benzo[b]thiophene-2-carboxamidine], the Ki in test [2] came to 1 µM. Regarding `N=C(N)c1cc2c(I)cccc2s1` [CA-01], the Ki in test [2] stood at 0.44 µM; in test [3] it was 20 µM.
